IC50 data for one compound are collected here from patent US9714247B2, “Multiple kinase pathway inhibitors” (Mannkind Corporation, priority 2012, dated 2017).

The chains behind the UniProt entries cited, without tags or fusion partners. Where a name states a change or a piece, a line headed by the entry shows the natural chain unless it says otherwise.
UniProt P07948: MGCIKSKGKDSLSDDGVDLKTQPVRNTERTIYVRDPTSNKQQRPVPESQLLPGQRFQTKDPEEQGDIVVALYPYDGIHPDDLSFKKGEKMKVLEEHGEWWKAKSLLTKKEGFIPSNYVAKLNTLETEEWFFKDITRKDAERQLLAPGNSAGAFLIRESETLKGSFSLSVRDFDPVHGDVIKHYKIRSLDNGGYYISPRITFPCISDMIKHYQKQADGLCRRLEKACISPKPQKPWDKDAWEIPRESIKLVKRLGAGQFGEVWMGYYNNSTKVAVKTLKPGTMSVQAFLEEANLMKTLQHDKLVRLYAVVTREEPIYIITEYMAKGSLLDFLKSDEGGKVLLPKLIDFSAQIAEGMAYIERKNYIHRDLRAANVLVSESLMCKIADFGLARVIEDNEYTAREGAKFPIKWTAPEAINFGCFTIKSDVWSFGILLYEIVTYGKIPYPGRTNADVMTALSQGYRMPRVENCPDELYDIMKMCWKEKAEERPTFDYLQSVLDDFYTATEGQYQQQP

This assay concerns the target Lyn (Homo sapiens (Human), UniProt P07948). Particulars: read-out: Lyn IC50.

Each structure is given as a SMILES string. pIC50: −log10 of the molar value.

Broadly, the pIC50 is the negative decadic logarithm of the IC50, by convention in mol/L. Consider `CCn1c(=O)c(-c2cc(OC)ccc2F)cc2cnc(Nc3ccc(N(C)C4CCN(C)CC4)cn3)cc21` [Compound 119, 1-ethyl-3-(2-fluoro-5-methoxyphenyl)-7-((5-(methyl(1-methylpiperidin-4-yl)amino)pyridin-2-yl)amino)-1,6-naphthyridin-2(1H)-one], for which the pIC50 was more than 7.00.
